Laboratory results: patent publication US11453897B2, “Method for producing aminobenzoic acid or an aminobenzoic acid derivative product” (Covestro Intellectual Property GmbH & Co. KG, priority 2018, dated 2022)

Key:
[1] = Formation of insoluble calcium ortho-aminobenzoate with calcium chloride at pH 7.0; dissolved ortho-aminobenzoic acid measured in the aqueous phase; format: physicochemical; settings: 48.0 g CaCl2, pH 7.0, 100 g ortho-aminobenzoic acid added
Protocol: 48.0 g of anhydrous calcium chloride was added to 1.00 L of fermentation broth. The pH was adjusted to a value of 7.0 by adding hydrochloric acid. 100 g of ortho-aminobenzoic acid (dissolved in sodium hydroxide solution at pH 7.0) was then added to this mixture by adding 200 mL of oAB STOCK SOLUTION. There was briefly precipitation of calcium ortho-aminobenzoate. The concentration of dissolved ortho-aminobenzoic acid measured in the aqueous phase was 18.0 g/L. The solids fraction of the mixture was filtered off and dried at 80° C. for 48 h. In this way, 110 g of dried solid material was obtained. 20.0 g of that was added to 50.0 mL of AMMONIUM STOCK SOLUTION 1, the mixture was stirred and the concentration of dissolved ortho-aminobenzoic acid was determined. The latter was 146 g/L.
48.0 g of anhydrous calcium chloride was added to 800 mL of water. The pH was adjusted to a value of 7.0 by adding hydrochloric acid. […] The concentration of dissolved ortho-aminobenzoic acid measured in the aqueous phase was 18.0 g/L. The solids fraction of the mixture was filtered off and dried at 80° C. for 48 h. […] 20.0 g of that was added to 25.0 mL of AMMONIUM STOCK SOLUTION 2, the mixture was stirred and the concentration of dissolved ortho-aminobenzoic acid was determined. […]

[2] = Determination of the solubility of calcium ortho-aminobenzoate in water; format: physicochemical; settings: stirred at room temperature for 10 min
Protocol: 3.00 g of dried calcium ortho-aminobenzoate was stirred into 100 mL of demineralized water and stirred at room temperature for 10 min. Subsequently, the concentration of dissolved ortho-aminobenzoic acid was determined in the aqueous phase. The latter was 17.0 g/L.
3.00 g of dried calcium ortho-aminobenzoate was stirred into 50 mL of demineralized water and stirred at room temperature for 10 min. Subsequently, the concentration of dissolved ortho-aminobenzoic acid was determined in the aqueous phase. The latter was 17.5 g/L.

Substance: calcium ortho-aminobenzoate
- concentration of dissolved ortho-aminobenzoic acid measured in the aqueous phase after precipitation ([1]; 1.00 L fermentation broth): 18000 µg/mL
- concentration of dissolved ortho-aminobenzoic acid measured in the aqueous phase after precipitation ([1]; 800 mL water): 18000 µg/mL
- concentration of dissolved ortho-aminobenzoic acid in the aqueous phase ([2]; 3.00 g dried salt in 50 mL demineralized water): 17500 µg/mL
- concentration of dissolved ortho-aminobenzoic acid in the aqueous phase ([2]; 3.00 g dried salt in 100 mL demineralized water): 17000 µg/mL
